# Test system: human cryopreserved hepatocytes
# Text: 5-hydroxy-omeprazole was quantified using LC-MS/MS.
structure (smiles),measurement,value
"[2H]C([2H])([2H])Oc1ccc2[nH]c([S@@+]([O-])Cc3ncc(C)c(OC([2H])([2H])[2H])c3C)nc2c1.[Na] [Example 49, (S)-5-Trideuteriomethoxy-2-[(3,5-dimethyl-4-trideuteriomethoxy-2-pyridinyl)methylsulfinyl]-1H-benzimidazole sodium salt]",Difference in 5-hydroxy-omeprazole formation rate compared to example 48,no difference in the formation rate

# Reference: patent US7601737B2, “Isotopically substituted proton pump inhibitors” (priority 2005, dated 2009)
